Results reported in article PMC7738869, “A novel STAT3 inhibitor W2014-S regresses human non-small cell lung cancer xenografts and sensitizes EGFR-TKI acquired resistance” (Theranostics, 2021).

Tested on: pY705-STAT3 and pY1068-EGFR
Assay: Western blot of pY705-STAT3 and pY1068-EGFR in PC-9/GR cells
Format: cell-based, human
Conditions: W2014-S 1 μM and/or gefitinib 2 μM, 24 h

COc1cc2ncnc(Nc3ccc(F)c(Cl)c3)c2cc1OCCCN1CCOCC1 [Gefitinib, reference compound]
level of pY705-STAT3 and pY1068-EGFR: not inhibited
